Laboratory results as given in patent US9040534B2 (Janssen Pharmaceutica NV, priority 2013, dated 2015).

Amino acid sequences for entries named in this document (tags omitted). A change or cut given only in a name is not applied to a line headed by its entry.
UniProt Q64663: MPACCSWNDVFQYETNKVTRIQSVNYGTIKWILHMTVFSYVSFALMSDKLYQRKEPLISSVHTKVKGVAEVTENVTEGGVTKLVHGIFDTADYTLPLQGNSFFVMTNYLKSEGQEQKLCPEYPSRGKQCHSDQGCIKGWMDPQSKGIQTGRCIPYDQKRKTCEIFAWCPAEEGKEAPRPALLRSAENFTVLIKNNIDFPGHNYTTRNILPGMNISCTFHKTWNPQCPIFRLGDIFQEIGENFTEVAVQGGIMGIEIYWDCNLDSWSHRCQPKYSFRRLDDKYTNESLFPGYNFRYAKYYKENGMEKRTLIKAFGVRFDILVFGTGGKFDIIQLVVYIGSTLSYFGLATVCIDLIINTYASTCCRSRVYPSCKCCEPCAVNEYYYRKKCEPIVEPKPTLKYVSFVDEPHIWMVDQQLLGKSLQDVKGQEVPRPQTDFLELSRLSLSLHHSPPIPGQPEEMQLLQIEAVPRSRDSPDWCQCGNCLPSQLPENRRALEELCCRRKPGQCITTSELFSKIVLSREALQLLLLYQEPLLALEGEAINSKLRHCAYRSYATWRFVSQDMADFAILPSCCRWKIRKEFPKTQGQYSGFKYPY
UniProt Q99572: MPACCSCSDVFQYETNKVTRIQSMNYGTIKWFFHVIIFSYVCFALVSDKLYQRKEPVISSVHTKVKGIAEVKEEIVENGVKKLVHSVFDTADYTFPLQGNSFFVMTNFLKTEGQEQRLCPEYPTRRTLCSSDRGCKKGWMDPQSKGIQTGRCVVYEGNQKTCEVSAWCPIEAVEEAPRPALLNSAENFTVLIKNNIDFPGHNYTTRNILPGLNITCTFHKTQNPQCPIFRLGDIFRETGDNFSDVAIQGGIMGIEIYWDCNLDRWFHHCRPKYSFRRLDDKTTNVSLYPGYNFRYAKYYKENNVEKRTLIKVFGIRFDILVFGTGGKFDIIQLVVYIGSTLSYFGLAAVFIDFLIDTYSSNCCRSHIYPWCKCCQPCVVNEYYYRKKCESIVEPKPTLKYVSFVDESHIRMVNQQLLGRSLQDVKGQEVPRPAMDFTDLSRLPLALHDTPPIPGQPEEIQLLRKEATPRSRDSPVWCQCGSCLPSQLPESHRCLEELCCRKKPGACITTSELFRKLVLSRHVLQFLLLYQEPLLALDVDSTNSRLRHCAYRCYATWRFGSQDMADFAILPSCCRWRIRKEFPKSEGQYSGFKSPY

How the values were obtained:
rat P2X7 [1] = target: T1, rat P2X7 (Rattus norvegicus (Rat), UniProt Q64663); assay: Ca2+ flux (FLIPR) in 1321N1 cells expressing recombinant rat P2X7 channel; assay type: cell-based; details: 250 μM BzATP
Method: (§1) (A) Ca^2+ Flux: 1321N1 cells expressing the recombinant human, rat or mouse P2X7 channel was cultured in HyQ DME/(HyClone/Dulbecco's Modified Eagle Medium) high glucose supplemented with 10% Fetal Bovine Serum (FBS) and appropriate selection marker. Cells were seeded at a density of 25000 cells/well (96-well clear bottom black walled plates) in 100 μl volume/well. On the day of the experiment, cell plates were washed with assay buffer, containing (in mM): 130 NaCl, 2 KCl, 1 CaCl2, 1 MgCl2, 10 HEPES, 5 glucose; pH 7.40 and 300 mOs. After the wash, cells were loaded with the Calcium-4 dye (Molecular Device) and incubated in the dark for 60 minutes. Test compounds were prepared at 250× the test concentration in neat DMSO. Intermediate 96-well compound plates were prepared by transferring 1.2 μL of the compound into 300 μL of assay buffer. A further 3× dilution occurred when transferring 50 μL/well of the compound plate to 100 μL/well in the cell plate. Cells were incubated with test compounds and dye for 30 minutes. […] The fluorescence change was measured 180 seconds after adding the agonist.

P2X7 [2] = target: T2, P2X7 (Homo sapiens (Human), UniProt Q99572); assay: P2X7 antagonism in human whole blood (LPS + Bz-ATP induced IL-1β release, ELISA); assay type: cell-based; details: 1 mM Bz-ATP
Method: Human blood was collected using a blood donor program. PBMCs were isolated from blood using a Ficoll density gradient technique. Briefly, blood was laid on Ficoll solution and centrifuged at RT for 20 minutes at 2000 rpm. The buffy layer (between red blood cells and plasma) was carefully collected by aspiration, washed with PBS and centrifuged again at 1500 rpm for 15 minutes. The resulting cell pellet was washed and plated on 96 well-plates for experiments. […] Lipopolysaccharide (LPS) (30 ng/ml) was added to each well and incubated for 1 hour. Test compounds were then added and incubated for 30 minutes. The P2X7 agonist, 2′(3′)-O-(4-benzoylbenzoyl) adenosine 5′-triphosphate (Bz-ATP) was then added at a final concentration of 0.5 mM (PBMC) or 1 mM (blood). Cells were incubated for an additional 1.5 hours. At that point, supernatant was collected and stored for IL-1β assay using manufacturer's protocol for enzyme-linked immunosorbent assay (ELISA). Data was expressed as percent control, where control is defined as the difference in IL-1β release in LPS+Bz-ATP samples and LPS only samples. Data was plotted as response (% control) versus concentration to generate IC50 values.

P2X7 [3] = target: T2, P2X7; assay: Ca2+ flux (FLIPR) in 1321N1 cells expressing recombinant human P2X7 channel; assay type: cell-based; details: 250 μM BzATP
Method: as §1

rat P2X7 [4] = target: T1, rat P2X7; assay: Radioligand binding, rat P2X7-1321N1 cell membranes, tritiated A-804598 tracer; details: 1 hour at 4° C.
Method: (§2) (B) Radioligand binding: human or rat P2X7-1321N1 cells were collected and frozen @ −80° C. On the day of the experiment, cell membrane preparations were made according to standard published methods. The total assay volume was 100 μl:10 μl compound (10×)+(b) 40 μl tracer (2.5×)+50 μl membrane (2×). The tracer used for the assay was tritiated A-804598. The compound can be prepared as described in the literature. (Donnelly-Roberts, D. Neuropharmacology 2009, 56 (1), 223-229.) Compounds, tracer and membranes were incubated for 1 hour @ 4° C. The assay was terminated by filtration (GF/B filters pre-soaked with 0.3% PEI) and washed with washing buffer (Tris-HCl 50 mM). The IC50 generated in the binding assay was corrected for tracer concentration and affinity of the tracer to derive at the affinity (Ki) of the test compounds.

P2X7 [5] = target: T2, P2X7; assay: Radioligand binding, human P2X7-1321N1 cell membranes, tritiated A-804598 tracer; details: 1 hour at 4° C.
Method: as §2, with “The total assay volume was 100 μl:10 μl compound (10×)+(b) 40 μl tracer (2.5×)+50 μl membrane (2×). The tracer used for the assay was tritiated A-804598.” left out, “(Donnelly-Roberts, D. Neuropharmacology 2009, 56 (1), 223-229.) Compounds, tracer and membranes were incubated for 1 hour @ 4° C.” left out

Work on `C[C@H]1Cn2c(nnc2-c2cnccn2)C(=O)N1Cc1cccc(C(F)(F)F)c1Cl` [Example 16, (6S)-7-[2-Chloro-3-(trifluoromethyl)benzyl]-6-methyl-3-pyrazin-2-yl-6,7-dihydro[1,2,4]triazolo[4,3-a]pyrazin-8(5H)-one] yielded an IC50 (rat P2X7 [1]) of 64.6 nM, an IC50 (P2X7 [2]) of 0.9 nM and an IC50 (P2X7 [3]) of 0.7 nM. The Ki (rat P2X7 [4]) was 1.1 nM and the Ki (P2X7 [5]) was 1.6 nM.
